Assay results published in EPA's ToxValDB 9.5.

Columns and labels:
[1] = tested on: Rattus norvegicus; details: chronic; oral; diet; M; renal effects: urothelial hyperplasia
[2] = tested on: Mus musculus; details: inhalation, whole body, neurological
[3] = tested on: Rattus norvegicus; details: chronic; duration: 93 days; inhalation; M/F; Sprague-Dawley; neurological
[4] = tested on: Mus musculus; details: short-term; duration: 11 days; inhalation; F; cerebellar lesions
[5] = tested on: Rattus norvegicus; details: acute, oral

[O-][Br+2]([O-])[O-] [Bromate]
LOAEL [1]: 6.1 mg/kg-day
NOAEL [1]: 1.1 mg/kg-day

CCl [Chloromethane]
LOAEL ([2]; chronic, duration: 24 months, M/F, B6C3F1): 105 mg/m3
NOAEL ([2]; short-term, duration: 11 days, F, C57BL/6): 103 mg/m3
NOAEL [3]: 105 mg/m3
LOAEL [4]: 206 mg/m3
NOAEL [4]: 103 mg/m3

CC(C)CCC(C)Nc1ccc(Nc2ccccc2)cc1 (centres undefined) [N-(5-Methyl-2-hexyl)-N'-phenyl-p-phenylenediamine]
LD50 ([5]; gavage, Wistar): 2100 mg/kg

CC(O)C(=O)O (centres undefined) [Lactic acid]
LD50 [5]: ≥ 3540 mg/kg
